Earlier results as cited in patent publication US6149937A, “Liposome encapsulated amphiphilic drug compositions” (priority 1996, dated 2000).
Only a part of the results on these compounds is given; other tests are left out.

How the values were obtained:
[1] = Table II; cited from earlier work
[2] = Table II; cited from earlier work; remark: listed apart in the source

## CCC(=O)N(c1ccccc1)C1(COC)CCN(CCc2cccs2)CC1
[1]
  pKs: 8.1
[2]
  Log Poct: 3.2

## CCC(=O)N(c1ccccc1)C1CCN(CCc2ccccc2)CC1
[1]
  pKs: 8.4
[2]
  Log Poct: 3

## CCC(=O)N(c1ccccc1)C1(COC)CCN(CCn2nnn(CC)c2=O)CC1
[1]
  pKs: 6.5
[2]
  Log Poct: 2.1
